Measured values: patent US20260167708A1

What was measured:
[1] = molecular target: recombinant TSLP-His ligand (Homo sapiens (Human)) (UniProt Q969D9); experiment: Alpha bead receptor-ligand binding assay; inhibition of TSLP-His binding to biotinylated TSLPR, relative to Reference Standard
[2] = molecular target: recombinant human TSLP (human) (UniProt Q969D9); experiment: cell-based or functional assay

| % Relative Potency [1] | Cell-based Reporter Gene Bioassay % Relative Potency [2] | Substance |
| --- | --- | --- |
| 95% | 94% | Tezepelumab CEX-UHPLC acidic peak fraction A-1 (antibody) |
| 106% | 99% | Tezepelumab CEX-UHPLC acidic peak fraction A-2 (antibody) |
| 109% | 103% | Tezepelumab CEX-UHPLC basic peak fraction B-1 (antibody) |
| 95% | 82% | Tezepelumab CEX-UHPLC basic peak fraction B-3 (antibody) |
| – | 100% | Tezepelumab drug substance (DS) (antibody) |
| – | 90% | Tezepelumab drug substance (DS) sample incubated 38 days (antibody) |

Further lines, the substance ahead of its results:

| Substance | % Relative Potency [1] | Cell-based Reporter Gene Bioassay % Relative Potency [2] |
| --- | --- | --- |
| Basic Fraction B-1 of stressed tezepelumab material (40C, up to four weeks) (antibody) | 101% | 94% |
| Basic Fraction B-2 of stressed tezepelumab material (40C, up to four weeks) (antibody) | 93% | 86% |
| Tezepelumab CEX-UHPLC basic peak fraction B-2 (antibody) | 106% | 94% |
| Tezepelumab CEX-UHPLC main peak fraction (MP) (antibody) | – | 104% |
